Source: paper PMC3608355, “Amino Acid Derivatives as New Zinc Binding Groups for the Design of Selective Matrix Metalloproteinase Inhibitors” (Journal of Amino Acids, 2013)

By UniProt entry, the sequences of proteins in these tests, tags left out. Residues count along the entry.
UniProt P08253, 110-660 limits assumed: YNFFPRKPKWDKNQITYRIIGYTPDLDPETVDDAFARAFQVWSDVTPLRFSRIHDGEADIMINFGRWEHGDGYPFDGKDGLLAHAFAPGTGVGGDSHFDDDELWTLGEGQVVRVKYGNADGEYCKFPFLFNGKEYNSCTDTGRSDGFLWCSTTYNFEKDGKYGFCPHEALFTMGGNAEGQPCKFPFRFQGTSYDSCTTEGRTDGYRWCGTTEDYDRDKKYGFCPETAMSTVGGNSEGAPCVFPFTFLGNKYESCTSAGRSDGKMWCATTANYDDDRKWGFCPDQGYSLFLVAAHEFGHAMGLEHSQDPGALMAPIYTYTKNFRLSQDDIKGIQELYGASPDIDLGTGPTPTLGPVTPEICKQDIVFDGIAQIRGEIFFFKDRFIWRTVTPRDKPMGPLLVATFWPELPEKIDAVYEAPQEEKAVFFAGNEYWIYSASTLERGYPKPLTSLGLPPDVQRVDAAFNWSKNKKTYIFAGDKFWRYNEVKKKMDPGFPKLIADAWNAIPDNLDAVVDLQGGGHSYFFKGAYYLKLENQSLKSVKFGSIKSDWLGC

Target: MMP-2 (Homo sapiens, UniProt P08253)
Test: MMP inhibition fluorometric assay, MMP-2
Settings: read-out: IC50 (μM ± SD), enzymatic inhibition of MMP-2; catalytic domain of MMP-2; ZBG library; value ± SD

Row | Compound | IC50
1 | [N-]=[N+]=NCC(N)CN=[N+]=[N-] (centres unmarked) | > 1000 µM
2 | [N-]=[N+]=NCC(N)CO (centres unmarked) | 520 µM
